Rows were chosen to be rich in hits. Some 1.9% of all compounds tested hit in one or more screens of this group.
PglD inh – PglD (C. jejuni) enzyme inhibition; purified PglD enzyme, DTNB colorimetric CoA detection; inhibition, % at 12.5 µM; actives 0.098% (n = 360,000); in the data active = inhibition above about 16%, passing the limit was not always enough
Yeast UUG start – yeast start codon fidelity modulation. S. cerevisiae UUG-firefly luciferase reporter, luminescence/redox ratio. activity score, % at 18.7 µM. 0.13% of 350,000 active;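 active means replicate mean at a twofold rise or more, about +100% in these data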;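 further: firefly luciferase made from a UUG start codon reports start codon fidelity; reporter light over untreated wells divided by growth signal over untreated wells; some hits fall short of that in this replicate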
PDI turbidity – inhibitors of human protein disulfide isomerase | AID 588391 | inhibition, % at 10 µM | PDI insulin aggregation turbidity, A650, 90 min | actives 0.052% (n = 350,000);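 active = mean inhibition across replicates of 30% or more, whatever share of single replicates reach that level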
FGF22 binding-1 – FGF22 (human) thermal shift binding; AID 651658; activity (Tm shift, normalised), % at 9.99 µM; actives 1.5% (n = 340,000); recombinant FGF22 thermal shift, SYPRO orange fluorescence; percent of sucrose octasulfate shift, DMSO zero; Q9HCT0;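 active = mean Tm shift, scaled 0 neutral to 100 positive control, at about 1.3% or above, every replicate too, limit read from the data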
ERp5 block – blocks human ERp5 reductase activity on insulin | Q15084 | ERp5 insulin aggregation, absorbance 650 nm, 90 min | inhibition, % at 9.99 µM | actives 0.05% (n = 350,000) | AID 651711;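 active = mean replicate inhibition above about 25%, with every replicate also reaching it, limit read from the data, passing the limit was not always enough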
ARNT TACC3 PPI – disrupts binding between human ARNT and TACC3; Q9Y6A5; AlphaScreen His-ARNT PAS-B/GST-TACC3 binding, luminescence; TACC3 fragment carries E629A point mutation; inhibition, % at 9.99 µM; actives 0.66% (n = 390,000); AID 623870;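 active = mean inhibition of replicates at least 50% and at least half of replicates each reaching 50%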;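 note: 0% = complete ARNT plus TACC3 wells and 100% = ARNT alone without TACC3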
FGF22 binding-2 – binds human FGF22 shifting its melting temperature | recombinant FGF22 thermal shift, SYPRO orange fluorescence | shares compounds with FGF22 binding-1 | actives 2% (n = 1,000) | thermal shift activity, °C (ΔTm) at 38 µM | AID 720646;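 active = fitted rise in melting shift crosses a set limit at or below the top valid dose tested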
FGF22 TSA DP – FGF22 (human) binding by thermal shift; shares compounds with FGF22 binding-1; Thermal shift assay, SYPRO orange, melting temperature shift; Tm shift (activity), % at 38 µM; 50 tested, under 10 active; AID 743017;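 active = compounds whose fitted dose curve of melting temperature shift rises past a set threshold within the tested doses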
SYPRO no-protein – compound-only SYPRO artifact for FGF22 binders; shares compounds with FGF22 binding-1; compound-only SYPRO orange thermal shift counter-screen, no protein; AC50, µM (highest dose often 38 µM); actives 2% (n = 1,000);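 active = rising signal whose fitted curve reaches the 0.54 level within the top valid dose, showing a melting point, actives reach about 13 µM in these data; inactive = the rest, including activity in the opposite direction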; note: value is where the raw curve crosses a fixed level and not half-maximal
Starred values were filed as active, the others as inactive; i = inactive; / = not tested or not shown; [ ] = another dose, or the depositor's remark.

SMILES	PglD inh	Yeast UUG start	PDI turbidity	FGF22 binding-1	ERp5 block	ARNT TACC3 PPI	FGF22 binding-2	SYPRO no-protein	others
Cc1cc(C(=O)Nc2cccc3c2O[C@@H](CN(C)C(=O)NC2CCCCC2)[C@@H](C)CN([C@H](C)CO)C3=O)n(C)n1	2	4	/	32*	3	3	0.009	i
COc1ccc(S(=O)(=O)N(C)C[C@H]2OCCCC[C@@H](C)Oc3ccc(NS(=O)(=O)c4ccc(Cl)cc4)cc3C(=O)N([C@@H](C)CO)C[C@H]2C)cc1	/	/	/	0	-2	/	/	/
O=C(Nc1ccccc1F)N[C@@H]1CC[C@H](CCNC(=O)C2CCOCC2)O[C@H]1CO	1	5	/	0	-3	-7	/	/
COc1ccc(NC(=O)N(C)C[C@H]2Oc3ccc(NC(=O)Cc4ccccc4)cc3C(=O)N([C@@H](C)CO)C[C@H]2C)cc1	-1	11	/	-1	-2	4	/	/
COc1ccc(NC(=O)N(C)C[C@@H]2Oc3ccc(NC(=O)Cc4ccccc4)cc3C(=O)N([C@H](C)CO)C[C@H]2C)cc1	1	20	/	1.5*	5	8	0.097[42 µM]	i
COc1ccc(NC(=O)N(C)C[C@H]2Oc3ccc(NS(=O)(=O)c4ccc(Cl)cc4)cc3C(=O)N([C@@H](C)CO)C[C@H]2C)cc1	2	8	/	0	-2	-5	/	/
COc1ccc(NC(=O)N(C)C[C@H]2Oc3ccc(NS(=O)(=O)c4ccc(Cl)cc4)cc3C(=O)N([C@H](C)CO)C[C@H]2C)cc1	1	8	/	1.4*	1	/	-0.034[42 µM]	i
C[C@H]1CN([C@@H](C)CO)C(=O)c2cccc(NC(=O)Nc3ccc4c(c3)OCO4)c2O[C@H]1CN(C)S(=O)(=O)c1cn(C)cn1	0	24	/	1.6*	2	3	-0.079	i
C[C@H]1CN([C@@H](C)CO)C(=O)c2cccc(NC(=O)Nc3ccc4c(c3)OCO4)c2O[C@@H]1CN(C)S(=O)(=O)c1cn(C)cn1	3	2	/	0	0	/	/	/
CC(=O)N(C)C[C@H]1Oc2cc(C#Cc3ccncc3)ccc2S(=O)(=O)N([C@H](C)CO)C[C@H]1C	4	11	/	0	0	-2	/	/
COc1ccccc1S(=O)(=O)N[C@H]1C=C[C@H](CC(=O)NCc2cc(F)cc(F)c2)O[C@H]1CO	4	-6	/	0	-2	-4	/	/
CCC(=O)Nc1ccc2c(c1)C(=O)N(C)C[C@H](OC)[C@@H](C)CN(Cc1ccccn1)[C@H](C)CO2	3	-27	/	0	4	-1	/	/
COc1cccc(C(=O)Nc2ccc3c(c2)C(=O)N(C)C[C@@H](OC)[C@@H](C)CN(C)[C@H](C)CO3)c1	2	5	/	0	4	-3	/	/
C[C@H]1CCCCO[C@@H](CN(C)C(=O)Cc2ccccc2)[C@@H](C)CN([C@@H](C)CO)C(=O)c2cc(NS(=O)(=O)c3ccc(Cl)cc3)ccc2O1	2	-4	/	0	0	/	/	/
CCc1cc(-c2[nH]ncc2-c2ccc3c(c2)OCCO3)c(O)cc1O	/	/	/	/	/	/	/	/	FGF22 TSA DP=0
CCc1cc(-c2n[nH]c(C)c2-c2ccc3c(c2)OCCO3)c(O)cc1O	/	/	/	/	/	/	/	/	FGF22 TSA DP=0
CCc1cc(-c2n[nH]c(C)c2-c2nc3ccccc3n2C)c(O)cc1O	4	-1	17	0	6	/	/	/
CCc1cc(-c2[nH]ncc2-c2ccc([N+](=O)[O-])cc2)c(O)cc1OC	-2	-12	3	/	/	38	/	/
O=C(C1CCOCC1)N1C[C@@H]2[C@H](c3ccccc31)[C@@H](CO)N2Cc1ccccc1	2	-11	/	1.5*	0	-10	-0.021[42 µM]	i
O=C(C1CCOCC1)N1C[C@H]2[C@@H](c3ccccc31)[C@@H](CO)N2Cc1ccc(Cl)cc1	3	-6	/	0	6	-6	/	/
COc1ccc(C(=O)N2C[C@H]3[C@@H](c4ccccc42)[C@H](CO)N3Cc2ccccc2)cc1	2	8	/	0	6	-4	/	/
COc1ccc(C(=O)N2C[C@@H]3[C@H](c4ccccc42)[C@@H](CO)N3Cc2ccccc2)cc1	-3	0	/	1.3*	-2	-1	0.12[42 µM]	i
CN(C)CCCNC(=O)C[C@@H]1CC[C@H]2[C@@H](COc3ccc(NC(=O)NC4CCCC4)cc3C(=O)N2C)O1	1	4	/	/	4	-11	/	/
COCCNC(=O)C[C@@H]1CC[C@H]2[C@@H](COc3ccc(NC(=O)COC)cc3C(=O)N2C)O1	1	-1	/	0	-3	-5	/	/
CC(C)NC(=O)N(C)C[C@H]1Oc2cc(C3=CCCC3)ccc2S(=O)(=O)N([C@@H](C)CO)C[C@@H]1C	3	-6	/	0	-4	8	/	/
COc1ccc(/C=N/NC(=O)c2cc(-c3ccc4c(c3)OCO4)n[nH]2)cc1OC	/	/	-5	1.5*	-7	37	0.19	i
O=C1C=CCCN1S(=O)(=O)/C=C/c1ccccc1	/	/	/	17*	3	/	0.039	i
CCCN1[C@@H]2c3ccc(-c4cccc(F)c4)c(=O)n3C[C@H]1[C@H](CO)[C@H]2C(=O)N(C)C	/	/	/	/	4	/	/	/
C/C=C/c1ccc([C@H]2[C@@H](CO)N(C(C)=O)C23CN(C(=O)c2ccc(F)cc2)C3)cc1	/	/	/	1.4*	-5	/	-0.22	i
C/C=C/c1ccc([C@H]2[C@@H](CO)N(C(C)=O)C23CN(C(=O)c2ccncc2)C3)cc1	/	/	/	0	-2	/	/	/

Entries shown so far that have a Cl atom (5):
SMILES	PglD inh	Yeast UUG start	PDI turbidity	FGF22 binding-1	ERp5 block	ARNT TACC3 PPI	FGF22 binding-2	SYPRO no-protein	others
COc1ccc(S(=O)(=O)N(C)C[C@H]2OCCCC[C@@H](C)Oc3ccc(NS(=O)(=O)c4ccc(Cl)cc4)cc3C(=O)N([C@@H](C)CO)C[C@H]2C)cc1	/	/	/	0	-2	/	/	/
COc1ccc(NC(=O)N(C)C[C@H]2Oc3ccc(NS(=O)(=O)c4ccc(Cl)cc4)cc3C(=O)N([C@@H](C)CO)C[C@H]2C)cc1	2	8	/	0	-2	-5	/	/
COc1ccc(NC(=O)N(C)C[C@H]2Oc3ccc(NS(=O)(=O)c4ccc(Cl)cc4)cc3C(=O)N([C@H](C)CO)C[C@H]2C)cc1	1	8	/	1.4*	1	/	-0.034[42 µM]	i
C[C@H]1CCCCO[C@@H](CN(C)C(=O)Cc2ccccc2)[C@@H](C)CN([C@@H](C)CO)C(=O)c2cc(NS(=O)(=O)c3ccc(Cl)cc3)ccc2O1	2	-4	/	0	0	/	/	/
O=C(C1CCOCC1)N1C[C@H]2[C@@H](c3ccccc31)[C@@H](CO)N2Cc1ccc(Cl)cc1	3	-6	/	0	6	-6	/	/

(cont.)
SMILES	PglD inh	Yeast UUG start	PDI turbidity	FGF22 binding-1	ERp5 block	ARNT TACC3 PPI	FGF22 binding-2	SYPRO no-protein	others
C[C@H]1CN([C@@H](C)CO)C(=O)c2cc(N(C)C)ccc2O[C@@H]1CN(C)S(=O)(=O)c1cccs1	-2	-2	/	-1	1	0	/	/
NC(=O)c1ccsc1NC(=O)COC(=O)CCCOc1ccccc1	-4	18	0	1.9*	0	-6	0.12	i
O=C(C[C@H]1C[C@@H]2c3cc(NC(=O)NC4CCCC4)ccc3O[C@@H]2[C@@H](CO)O1)NCc1cc(F)ccc1F	-9	-4	/	0	/	3	/	/
C[C@H]1CN([C@@H](C)CO)C(=O)c2cc(NS(=O)(=O)c3ccccc3)ccc2O[C@@H]1CN(C)Cc1ccc(C(=O)O)cc1	-2	23	/	1.3*	5	-9	0.095	i
C[C@H](CO)N1C[C@H](C)[C@H](CN(C)S(C)(=O)=O)Oc2ccc(NS(=O)(=O)c3ccccc3)cc2C1=O	5	7	/	1	-2	-2	/	/
